Results on one compound are retold here after patent publication US20160175306A1, “COMBINATION OF A IMIDAZOPYRIDAZINE DERIVATIVE AND A MITOTIC AGENT FOR THE TREATMENT OF CANCER” (BAYER PHARMA AKTIENGESELLSCHAFT, priority 2013, published 2016).

In the test the test system is HeLa human cervical tumour cells. Kind of test: Proliferation Assay with HeLa cells. The following applies: 96 h, 4 days, crystal violet. The format is cell-based. How it is done:
Cultivated tumour cells (MCF7, hormone dependent human mammary carcinoma cells, ATCC HTB22; NCI-H460, human non-small cell lung carcinoma cells, ATCC HTB-177; DU 145, hormone-independent human prostate carcinoma cells, ATCC HTB-81; HeLa-MaTu, human cervical carcinoma cells, EPO-GmbH, Berlin; HeLa-MaTu-ADR, multidrug-resistant human cervical carcinoma cells, EPO-GmbH, Berlin; HeLa human cervical tumour cells, ATCC CCL-2; B16F10 mouse melanoma cells, ATCC CRL-6475) were plated at a density of 5000 cells/well (MCF7, DU145, HeLa-MaTu-ADR), 3000 cells/well (NCI-H460, HeLa-MaTu, HeLa), or 1000 cells/well (B16F10) in a 96-well multititer plate in 200 μL of their respective growth medium supplemented 10% fetal calf serum.
After 24 hours, the cells of one plate (zero-point plate) were stained with crystal violet (see below), while the medium of the other plates was replaced by fresh culture medium (200 μl), to which the test substances were added in various concentrations (0 μM, as well as in the range of 0.01-30 μM; the final concentration of the solvent dimethyl sulfoxide was 0.5%). […] Cell proliferation was determined by staining the cells with crystal violet: the cells were fixed by adding 20 μl/measuring point of an 11% glutaric aldehyde solution for 15 minutes at room temperature. […] The extinction was determined by photometry at a wavelength of 595 nm. […]

Take `COc1ccc(Oc2cc(NCCC(F)(F)F)c3ncc(-c4ccc(C(=O)NC5CC5)c(C)c4)n3n2)c(F)c1F` [Compound A27, N-cyclopropyl-4-{6-(2,3-difluoro-4-methoxyphenoxy)-8-[(3,3,3-trifluoropropyl)amino]imidazo[1,2-b]pyridazin-3-yl}-2-methylbenzamide]: the IC50 (usually the midpoint of a concentration-inhibition curve) is less than 25 nM.
